Article PMC4955727 (Molecular bioSystems, 2016)

Sequences of proteins named here, by UniProt entry; tags and fusion partners are left off.
UniProt P08183, whole entry: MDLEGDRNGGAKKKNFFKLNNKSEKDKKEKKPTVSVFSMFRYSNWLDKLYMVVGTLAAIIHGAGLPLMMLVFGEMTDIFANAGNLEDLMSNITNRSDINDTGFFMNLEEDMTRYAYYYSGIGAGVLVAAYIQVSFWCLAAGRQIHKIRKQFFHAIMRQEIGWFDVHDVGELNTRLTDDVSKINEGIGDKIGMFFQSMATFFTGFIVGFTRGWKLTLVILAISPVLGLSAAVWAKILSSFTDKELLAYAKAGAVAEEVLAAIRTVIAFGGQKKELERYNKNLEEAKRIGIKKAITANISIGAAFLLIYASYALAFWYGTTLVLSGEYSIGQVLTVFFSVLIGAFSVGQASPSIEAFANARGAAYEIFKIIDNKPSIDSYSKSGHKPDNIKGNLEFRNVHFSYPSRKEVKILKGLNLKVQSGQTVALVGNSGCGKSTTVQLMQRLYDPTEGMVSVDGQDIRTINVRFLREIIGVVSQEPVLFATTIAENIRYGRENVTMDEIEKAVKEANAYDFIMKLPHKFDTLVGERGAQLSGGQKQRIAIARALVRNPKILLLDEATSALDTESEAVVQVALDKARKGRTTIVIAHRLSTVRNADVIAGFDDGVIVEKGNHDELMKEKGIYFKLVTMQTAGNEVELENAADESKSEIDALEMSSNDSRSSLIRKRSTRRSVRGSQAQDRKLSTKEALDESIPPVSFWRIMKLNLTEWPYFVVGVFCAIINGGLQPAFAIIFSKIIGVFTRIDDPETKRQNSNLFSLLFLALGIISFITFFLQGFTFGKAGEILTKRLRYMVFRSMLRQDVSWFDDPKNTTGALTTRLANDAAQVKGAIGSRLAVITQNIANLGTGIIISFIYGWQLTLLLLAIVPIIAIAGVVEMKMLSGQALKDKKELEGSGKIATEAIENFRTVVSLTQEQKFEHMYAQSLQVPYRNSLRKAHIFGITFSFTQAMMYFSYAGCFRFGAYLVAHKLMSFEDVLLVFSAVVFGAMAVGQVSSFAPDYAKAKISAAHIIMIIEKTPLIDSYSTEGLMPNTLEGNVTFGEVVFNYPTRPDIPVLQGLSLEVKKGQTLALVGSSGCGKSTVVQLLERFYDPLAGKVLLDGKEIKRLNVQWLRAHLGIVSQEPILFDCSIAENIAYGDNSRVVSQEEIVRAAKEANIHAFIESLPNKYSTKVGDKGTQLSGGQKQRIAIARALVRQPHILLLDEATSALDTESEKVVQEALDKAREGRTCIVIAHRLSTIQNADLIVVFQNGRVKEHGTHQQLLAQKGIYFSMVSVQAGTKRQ

Assays:
P-gp [1] = conditions: cited from earlier work
P-gp [2] = target: P-gp (Homo sapiens, UniProt P08183)

**Q.** For Proanthocyanidin, which IC50 (P-gp [1]) is on record?
**A.** The IC50 was 400 µM.

**Q.** And the “Calcein-AM Efflux % inhibition” value (P-gp [2])?
**A.** The value was 18.52%.

**Q.** And the “P-gp efflux inhibitory activity (in words)” value (P-gp [2])?
**A.** The value was “low inhibitory activity”.
